Test results taken from ChEMBL document CHEMBL3822371, “Rapid Discovery and Structure-Activity Relationships of Pyrazolopyrimidines That Potently Suppress Breast Cancer Cell Growth via SRC Kinase Inhibition with Exceptional Selectivity over ABL Kinase” (J Med Chem, 2016).

System: MCF7
Assay: cells
Details: Homo sapiens, MCF7, 120 h

EC50: 800 nM
SMILES: CCOC(Cn1nc(-c2cnc3[nH]ccc3c2)c2c(N)ncnc21)OCC
